“And” between values parts separate entries of the source, which are not always exact repeats. Identical values can stand only once. Counter-ions that a name gives are not always drawn. Like-named read-outs stand apart in the source and are kept apart here.
Key:
[1] = test system: T1, chymotrypsin-like sites (β5) of proteasome in MM cells; assay: PROTEASOMEGLO assay of proteasome inhibition in MM cells; assay type: cell-based; details: read-out: IC50 for sites: Chym-L
T1 construct: other: NCI-H929; bortezomib 100 nM 1 h; bortezomib 11 nM 1 h; bortezomib 3.7 nM 1 h; bortezomib 33 nM 1 h; other: NCI-H9
Protocol: (§1) Proteasome inhibition in MM cells was measured with luminogenic substrates using PROTEASOMEGLO assay (Promega). […] An aliquot of culture was pelleted and medium was removed and replaced with PBS. The resulting cell suspension was mixed with luminogenic substrates in the manufacturer-provided lysis/assay buffer. After 3 minutes mixing on an orbital shaker, the plate was incubated in the dark for additional 17 minutes, followed by the measurements of the luminescence, performed in triplicate for each substrate/data point. Data were analyzed as for purified proteasomes. […] Cells (1×10^6 per well of a 6-well plate) were incubated with the inhibitors for 4 hours at 37° C. and this was followed by a 2 hour incubation with 5 μM BODIPY-TMR-epoxomicin. Subsequently, the medium was removed and the cells were washed with PBS and harvested. […] The supernatant was collected and the protein concentration was determined by the Bradford assay, and used to normalize gel loading. The samples were analysed by SDS-PAGE and fluorescent densitometry as described for competition experiment in cell lysates. IC50 values were calculated from three independent experiments using […] PRISM software.

The chains behind the UniProt entries cited, without tags or fusion partners. Where a name states a change or a piece, a line headed by the entry shows the natural chain unless it says otherwise.
UniProt P20618: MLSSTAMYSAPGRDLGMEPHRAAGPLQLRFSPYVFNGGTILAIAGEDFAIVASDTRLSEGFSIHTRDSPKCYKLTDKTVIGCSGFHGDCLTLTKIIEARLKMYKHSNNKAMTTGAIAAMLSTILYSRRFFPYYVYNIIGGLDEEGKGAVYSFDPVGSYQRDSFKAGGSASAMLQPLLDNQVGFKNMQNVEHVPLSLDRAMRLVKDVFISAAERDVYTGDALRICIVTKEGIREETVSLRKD
UniProt P28074: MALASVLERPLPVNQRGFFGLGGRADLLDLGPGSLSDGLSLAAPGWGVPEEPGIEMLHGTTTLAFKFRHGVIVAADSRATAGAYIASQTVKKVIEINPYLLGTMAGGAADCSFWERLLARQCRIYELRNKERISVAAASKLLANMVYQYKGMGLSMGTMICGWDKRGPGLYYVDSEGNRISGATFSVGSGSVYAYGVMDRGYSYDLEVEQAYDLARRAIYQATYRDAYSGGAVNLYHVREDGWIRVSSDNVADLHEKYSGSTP

[2] = biological target: T2, caspase-like sites (β1) of proteasome in MM cells (Homo sapiens, UniProt P28072+Q99436); assay: as above; assay type: cell-based; details: read-out: IC50 for sites: Casp-L; NCI-H929 cells, 6 hours; >>30 no inhibition at 30 μM, >30 inhibition 10-50% at 30 μM
T2 sequence (P28072 35-239): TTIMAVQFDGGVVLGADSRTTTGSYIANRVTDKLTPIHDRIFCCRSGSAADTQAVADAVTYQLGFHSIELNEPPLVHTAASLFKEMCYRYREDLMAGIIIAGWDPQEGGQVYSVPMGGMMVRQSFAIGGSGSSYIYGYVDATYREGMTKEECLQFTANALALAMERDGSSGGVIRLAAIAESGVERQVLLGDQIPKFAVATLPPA
T2 sequence (Q99436 44-277): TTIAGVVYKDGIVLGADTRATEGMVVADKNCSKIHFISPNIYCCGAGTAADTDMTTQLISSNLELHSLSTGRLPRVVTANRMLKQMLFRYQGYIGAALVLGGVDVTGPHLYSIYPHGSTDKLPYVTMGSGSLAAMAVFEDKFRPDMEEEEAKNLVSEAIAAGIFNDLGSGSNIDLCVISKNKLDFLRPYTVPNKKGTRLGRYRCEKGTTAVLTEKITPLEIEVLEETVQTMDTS

[3] = biological target: β5 (chymotrypsin-like site) of proteasome in HEK-293T cells (Homo sapiens, UniProt P20618+P28074); assay: Competition assay in living HEK-293T cells with activity-based probe; assay type: cell-based; details: HEK-293 cells treated 4 hours, >50 inhibition between 10 and 50% at 50 μM, read-out: IC50 for sites: Chym-L
Protocol: as §1, with “BODIPY-TMR-epoxomicin.” for “BODIPY-TMR-epoxomicin. Subsequently, the medium was removed and the cells were washed with PBS and harvested.”, “PRISM software.” left out
Human embryonic kidney cells (some 1×10^6) were cultured in 6-well plates in DMEM containing 10% fetal calf serum, 10 units/mL penicillin and 10 μg/mL streptomycin in a 7% CO2 humidified incubator at 37° C. overnight. […] The supernatant was collected and the protein concentration was determined by the Bradford assay. […]

[4] = biological target: caspase-like site of 26S proteasomes (Oryctolagus cuniculus, UniProt A0A5F9DQW2); assay: Inhibition of purified 26S proteasomes, substrate Ac-nLPnLD-amc; assay type: biochemical, rabbit; details: >>30 no inhibition at 30 μM, >30 inhibition between 10 and 50% at 30 μM, read-out: IC50 for sites in 26S proteasomes: Casp-L
Protocol: 26S proteasomes were purified from rabbit muscle using known methods (Screen, et al. (2010) supra). […] NOVEX Bis-Tris gels (12%, Invitrogen) with MOPS running buffer were used for electrophoretic separation of catalytic subunits modified by active-site probes. Inhibition of active sites inside cells was assayed using luminescent PROTEASOMEGLO assay (Promega; Moravec, et al. (2009) Anal. Biochem. 387:294-302) according to known methods (Britton, et al. (2009) supra).

[5] = NCI-H929 cells, 6 hours, >>30 no inhibition at 30 μM, >30 inhibition 10-50% at 30 μM

CC(C)C[C@H](NC(=O)[C@H](Cc1ccc(N)cc1)NC(=O)[C@H](Cc1ccccc1)N=[N+]=[N-])C(=O)N[C@H](/C=C/S(C)(=O)=O)Cc1ccc(CN)cc1 [Compound 51, N3-Phe-Phe (4-NH2. TFA)-Leu-Phe (4-CH2NH2.TFA)-VS]
IC50 [1]: 3.6 µM and 7.2 µM

CC(C)C[C@H](NC(=O)[C@H](Cc1ccncc1)NC(=O)[C@H](Cc1ccccc1)N=[N+]=[N-])C(=O)N[C@H](/C=C/S(C)(=O)=O)Cc1ccc(CN)cc1 [Compound 50, N3-Phe-Ala (4-pyridine)-Leu-Phe (4-CH2NH2-TFA)-VS]
IC50 [1, 5]: 10.5 µM | IC50 [2]: > 30 µM | IC50 [3]: > 50 µM

CC(C)C[C@H](NC(=O)[C@H](Cc1ccccc1)N=[N+]=[N-])C(=O)N[C@@H](CC(C)C)C(=O)N[C@H](/C=C/S(C)(=O)=O)Cc1ccc(CN)cc1 [Compound 4a, N3Phe-Leu-Leu-Phe (4-CH2NH2) VS]
IC50 [4]: 16 µM

Cc1c(O)cccc1C(=O)N[C@H](C(=O)N[C@@H](CO)C(=O)N[C@H](/C=C/S(C)(=O)=O)Cc1ccc(CN)cc1)C(C)C [Compound 48, HMB-Val-Ser-Phe (4-CH2NH2)-VS]
IC50 [1, 5]: 13 µM | IC50 ([1]; RPMI-8226 cells, 6 hours, >>30 no inhibition at 30 μM, >30 inhibition 10-50% at 30 μM): 15 µM
